Experimental data as given in article PMC3849192, “A Simple Method for Assessing Free Brain/Free Plasma Ratios Using an In Vitro Model of the Blood Brain Barrier” (PLoS ONE, 2013).

Experiment: In vivo brain exposure (Cu,br/Cu,pl) under steady-state like conditions after intravenous administration
Conditions: rat, i.v. bolus plus infusion; for In vivo Cu,br/Cu,pl (homog.) Mean steady-state: Cbr/Cpl x fubr/fupl with fu,br from brain homogenate; for In vivo Cu,br/Cu,pl (slice) Mean steady-state: Cbr/Cpl x fubr/fupl with fu,br from brain slice

SMILES | In vivo Cu,br/Cu,pl (homog.) Mean steady-state | In vivo Cu,br/Cu,pl (slice) Mean steady-state
CN1CC[C@]23c4c5ccc(O)c4O[C@H]2[C@@H](O)C=C[C@H]3[C@H]1C5 [Morphine] | 0.20 | 0.15
CN1C(=O)CN=C(c2ccccc2)c2cc(Cl)ccc21 [Diazepam] | 0.49 | 0.49
